According to ChEMBL document CHEMBL1127182, “DNA gyrase inhibitory and antibacterial activity of some flavones(1)” (Bioorg Med Chem Lett, 1993):
Converted amounts (≈) assume the structure as drawn.

Tested on: DNA gyrase (Escherichia coli)
Assay: Concentration facilitating 50% of the maximum of the cleavable complex

Compound `O=c1c(O)c(-c2cc(O)cc(O)c2)oc2cc(O)cc(O)c12` has a CC50 of 436 µg/mL (≈ 1440 µM).
